The values that follow come from patent publication US20180141880A1, “Nontoxic and Non-incendiary Obscurant Compositions and Method of Using Same” (published 2018).

A short description of the series: Sublimation using conventional sucrose-chlorate pyrotechnic composition.

The substance triethanolamine borate gave a sublimation temperature below 250 °C.
